# Water solubility values, as collected for the OPERA models

From the experimental data distributed with OPERA 2.9.

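These are experimental values that the OPERA curators gathered from public databases to train and test their QSAR models. The files give a single number for a compound and property, which may rest on several reports. Method, purity and exact conditions of the single measurements are not given. The measured form (salt, isomer or mixture) is not always the one drawn. Some entries may be limits or estimates that an upstream database listed as plain numbers.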

Water solubility is log10 of mol/L, nominally at 25 °C; higher is more soluble. Cells with "–" have no entry in this list.

| structure (SMILES) | name | water solubility (log10 mol/L) |
|---|---|---|
| CC(C)ON=O | Isopropyl nitrite | -1.594 |
| CCCC(C)OC(N)=O (configuration not stated) | 1-Methylbutyl carbamate | -1.226 |
| O=C([O-])C(F)(F)C(F)(F)C(F)(F)C(F)(F)C(F)(F)F.[Na+] | Sodium perfluorohexanoate | -4.057 |
| Cc1ccc(CCN)cc1 | p-Methylphenethylamine | -0.745 |
| Nc1ncnc2c1ccn2[C@@H]1O[C@H](CO)[C@@H](O)[C@H]1O | – | -1.95 |
| NC(=O)c1cc([N+](=O)[O-])cc([N+](=O)[O-])c1 | Nitromide | -1.839 |
| CCOP(=O)(NC(C)C)Oc1ccc(S(C)(=O)=O)c(C)c1 (configuration not stated) | Fenamiphos sulfone | -2.73 |
| NCCC(NC(=O)C(N)CCC/N=C(\N)N[N+](=O)[O-])C(N)=O.O=C(O)C(F)(F)F.O=C(O)C(F)(F)F (stereo partly drawn) | – | -1.039 |
| O=C=S | Carbonyl sulfide | -1.69 |
| CC(C)OC(=O)C(O)(c1ccc(Br)cc1)c1ccc(Br)cc1 | Bromopropylate | -5.78 |
| FC(F)(F)c1ccc(OCCCOc2c(Cl)cc(OCC=C(Cl)Cl)cc2Cl)nc1 | Pyridalyl | -3.515 |
| COc1ccccc1OC | 1,2-Dimethoxybenzene | -1.445 |
| NC(=O)O[C@@H](Cn1ncnn1)c1ccccc1Cl | Cenobamate | -2.197 |
| Nc1c(C(=O)O)cc([N+](=O)[O-])cc1[N+](=O)[O-] | 2-Amino-3,5-dinitrobenzoic acid | -3.101 |
| CO[C@]12CC[C@@]3(C[C@@H]1[C@](C)(O)C(C)(C)C)[C@H]1Cc4ccc(O)c5c4[C@@]3(CCN1CC1CC1)[C@H]2O5 | Buprenorphine | -4.408 |
| CC(C)(C)C1CCC(OC(=O)OOC(=O)OC2CCC(C(C)(C)C)CC2)CC1 (configuration not stated) | – | -8.822 |
| O=C1NC(=O)C(=O)C(=O)N1 | Alloxan | -1.25 |
| O=C(NC(=O)c1c(F)cccc1F)Nc1ccc(CO/N=C(/c2ccc(Cl)cc2)C2CC2)cc1 | Flucycloxuron,(E)-isomer | -8.685 |
| CNc1ccc([N+](=O)[O-])cc1[N+](=O)[O-] | N-Methyl-2,4-dinitroaniline | -3.994 |
| O=C1CN=C(c2ccccn2)c2cc(Br)ccc2N1 | Bromazepam | -3.48 |
| CO[C@H]1C[C@H](O[C@H]2CC[C@]3(C)[C@H]4CC[C@]5(C)[C@@H](C6=CC(=O)OC6)CC[C@]5(O)[C@@H]4CC[C@]3(O)C2)O[C@H](C)[C@H]1O[C@@H]1O[C@H](CO)[C@@H](O)[C@H](O)[C@H]1O | Periplocin | -1.903 |
| O=S(=O)([O-])C(F)(F)C(F)(F)C(F)(F)C(F)(F)C(F)(F)C(F)(F)C(F)(F)C(F)(F)F.[Li+] | Lithium perfluorooctanesulfonate | -2.959 |
| c1ccc2c(c1)Oc1ccccc1[As]2O[As]1c2ccccc2Oc2ccccc21 | 10,10'-Oxybisphenoxarsine | -5 |
| S=P(S)(Oc1ccccc1)Oc1ccccc1 | O,O-Diphenyl hydrogen phosphorodithioate | -0.071 |
| Cc1c(O)cc([N+](=O)[O-])cc1[N+](=O)[O-] | 2-Methyl-3,5-dinitrophenol | -4.183 |
| Cn1nnnc1SSc1nnnn1C | 5,5'-Dithiobis(1-methyltetrazole) | -1.759 |
| CCCCCCCCCCCCN(C)C | N,N-Dimethyldodecan-1-amine | -3.761 |
| C1CN1c1nc(N2CC2)nc(N2CC2)n1 | Triethylenemelamine | 0.292 |
| CCOP(=S)(OCC)Oc1ccc(SC)cc1 | – | -4.889 |
| C=CCC1(C(C)CC)C(=O)NC(=O)NC1=O (configuration not stated) | Talbutal | -2.018 |
| CNC | Dimethylamine | 1.56 |
| C/C=C\[C@@H]1[C@@H](C(=O)OCc2c(F)c(F)c(COC)c(F)c2F)C1(C)C | Metofluthrin | -5.73 |
| [O-][N+](=Nc1ccccc1)c1ccccc1 | Azoxybenzene | -5.3 |
| CC(C)N(C)S(=O)(=O)N=C(O)c1cc(-n2c(=O)cc(C(F)(F)F)n(C)c2=O)c(F)cc1Cl | Saflufenacil | -2.38 |
| Cc1cc2[nH]c(=O)[nH]c2cc1N=NC1C(=O)NC(=O)NC1=O | – | -6.489 |
| CN1C2CCC1CC(OC(=O)C(COS(=O)(=O)O)c1ccccc1)C2 (configuration not stated) | – | -1.568 |
| C[C@H](NC(=O)[C@H](C)NC(=O)[C@@H](N)CCP(C)(=O)O)C(=O)[O-].[Na+] | Bilanafos-sodium | 0.299 |
| FC(F)=C(F)C(F)(F)F | Hexafluoropropene | -2.889 |
| C[C@@H]1C[C@@]2(C)[C@@H](CC[C@@H]3[C@@H]2CC[C@]2(C)[C@@H](O)CC[C@@H]32)CC1=O | Dromostanolone | -4.702 |
| O=C(NCO)NCO | 1,3-Dimethylolurea | -3.48 |
| CC(C)[C@@]1(O)[C@@H](OC(=O)c2ccc[nH]2)[C@@]2(O)[C@@]3(C)C[C@]4(O)O[C@@]5([C@H](O)[C@@H](C)CC[C@]35O)[C@@]2(O)[C@@]14C | Ryanodine | -1.489 |

Extract of 5 entries:

| structure (SMILES) | name | water solubility (log10 mol/L) |
|---|---|---|
| O=C=S | Carbonyl sulfide | -1.69 |
| CN1C2CCC1CC(OC(=O)C(COS(=O)(=O)O)c1ccccc1)C2 (configuration not stated) | – | -1.568 |
| Nc1ncnc2c1ccn2[C@@H]1O[C@H](CO)[C@@H](O)[C@H]1O | – | -1.95 |
| C/C=C\[C@@H]1[C@@H](C(=O)OCc2c(F)c(F)c(COC)c(F)c2F)C1(C)C | Metofluthrin | -5.73 |
| S=P(S)(Oc1ccccc1)Oc1ccccc1 | O,O-Diphenyl hydrogen phosphorodithioate | -0.071 |